Reference: article PMC4773911 (Journal of the American Chemical Society, 2015)

Biological target: T1, DAGL-α (Homo sapiens, UniProt Q9Y4D2)
T1 sequence (Q9Y4D2 1-1042): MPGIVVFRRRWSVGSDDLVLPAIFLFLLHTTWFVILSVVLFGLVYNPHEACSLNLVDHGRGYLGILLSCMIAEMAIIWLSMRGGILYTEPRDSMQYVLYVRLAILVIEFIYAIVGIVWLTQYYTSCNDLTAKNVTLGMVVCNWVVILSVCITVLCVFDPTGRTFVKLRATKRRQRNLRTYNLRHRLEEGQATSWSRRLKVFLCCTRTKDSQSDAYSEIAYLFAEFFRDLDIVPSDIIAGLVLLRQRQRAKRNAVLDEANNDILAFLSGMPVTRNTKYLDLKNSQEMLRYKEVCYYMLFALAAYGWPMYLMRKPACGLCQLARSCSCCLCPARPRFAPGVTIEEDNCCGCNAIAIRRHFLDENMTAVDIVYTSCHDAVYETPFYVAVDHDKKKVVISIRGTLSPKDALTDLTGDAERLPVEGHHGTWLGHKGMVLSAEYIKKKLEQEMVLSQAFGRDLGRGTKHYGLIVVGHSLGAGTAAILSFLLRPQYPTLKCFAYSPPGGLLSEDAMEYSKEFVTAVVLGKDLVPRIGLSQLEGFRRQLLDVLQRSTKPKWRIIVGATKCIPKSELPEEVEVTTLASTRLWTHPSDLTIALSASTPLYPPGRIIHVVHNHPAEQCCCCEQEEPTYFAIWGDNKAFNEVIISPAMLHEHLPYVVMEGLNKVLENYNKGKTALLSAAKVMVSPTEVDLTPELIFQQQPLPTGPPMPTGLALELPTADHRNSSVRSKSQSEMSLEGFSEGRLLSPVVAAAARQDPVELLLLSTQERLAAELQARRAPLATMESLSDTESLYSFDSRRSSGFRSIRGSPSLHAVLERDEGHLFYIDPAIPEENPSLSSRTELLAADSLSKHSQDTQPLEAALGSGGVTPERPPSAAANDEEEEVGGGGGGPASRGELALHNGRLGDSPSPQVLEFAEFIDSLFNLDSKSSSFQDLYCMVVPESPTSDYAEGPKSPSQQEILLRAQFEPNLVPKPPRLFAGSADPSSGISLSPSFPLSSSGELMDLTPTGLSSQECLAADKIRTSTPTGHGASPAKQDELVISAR
Assay: real-time, fluorescence-based
Conditions: substrate 1-stearoyl-2-arachidonoyl-sn-glycerol; n=4

## Cc1ccc(-c2cnc3nc(C(=O)CCCCCc4ccccc4)oc3c2)cc1 [LEI105]
  pIC50 of DAGL-α inhibition, natural substrate assay: 7.9 ± 0.08
